INS-1E GSIS act: GLuc luminescence reporter in INS-1E cells, primary screen for activators of glucose-dependent secretion of insulin. INS-1E GLuc reporter insulin secretion, 2-3 h. activation, % at 16.6 µM. 370,000 compounds, 0.61% hits. AID 743287;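 active means lowest replicate activation of at least 40%, so every replicate reaches that level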;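 further: 0% = median of neutral control wells and 100% = median of IBMX positive control wells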
NR1D1 modulator: modulators of human Rev-erb alpha DNA binding | AID 1259318 | 370,000 compounds, 0.79% hits | activity, % at 10 µM | Rev-erbα–FITC-DNA binding, fluorescence polarization, 90 min;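 active means activity above about 14%, limit read from the data; passing the limit was not always enough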;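 further: 0% = DMSO wells with 35 nM protein and 100% = DMSO wells with 750 nM protein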
ERp5 inh: inhibitors of human ERp5 | AID 651711 | ERp5 insulin aggregation, absorbance 650 nm, 90 min | 350,000 compounds, 0.05% hits | inhibition, % at 9.99 µM;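 active means mean replicate inhibition above about 25%, with every replicate also reaching it, limit read from the data, passing the limit was not always enough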
UUG fidelity: modulators of yeast start codon fidelity, primary screen, whole organism, S. cerevisiae, single point, plate reader | AID 602363, 2012 | actives 0.13% (n = 350,000) | activity score, % at 18.7 µM | S. cerevisiae UUG-firefly luciferase reporter, luminescence/redox ratio;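 active means replicate mean at a twofold rise or more, about +100% in these data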;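 further: firefly luciferase made from a UUG start codon reports start codon fidelity; reporter light over untreated wells divided by growth signal over untreated wells; some hits fall short of that in this replicate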
SMARCA2 activ: activators of SMARCA2 function; 370,000 compounds, 1% hits; MG213 cells, MMTV-luciferase reporter, dexamethasone, overnight; activation, % at 9.1 µM; in the data active means activation above about 7.8%;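 further: 0% = vehicle wells and 100% = reference activator wells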
PDI turbidity: blocks human protein disulfide isomerase activity; P07237; PDI insulin aggregation turbidity, A650, 90 min; inhibition, % at 10 µM; 350,000 compounds, 0.052% hits; AID 588391;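 active means mean inhibition across replicates of 30% or more, whatever share of single replicates reach that level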
* marks the source's active call; other numbers are inactive results; . = not tested or not shown. Shown are actives, neighbours in structure and some others; about 2.1% of the full set was active somewhere.

SMILES | INS-1E GSIS act | NR1D1 modulator | ERp5 inh | UUG fidelity | SMARCA2 activ | PDI turbidity
COCCN(C(=O)COC(=O)/C=C/c1cccs1)c1c(N)n(Cc2ccccc2)c(=O)[nH]c1=O | 25 | 4 | -12 | -16 | 0 | -3
CC(C)CN(C(=O)COC(=O)/C=C/c1cccs1)c1c(N)n(Cc2ccccc2)c(=O)[nH]c1=O | 44* | 1 | -12 | . | 0 | -10
CN1C(=O)/C(=C\c2ccncc2)SC1=Nc1ccccc1 | 67* | 1 | . | . | 4 | 6
CCCN1C(=O)/C(=C/c2ccncc2)SC1=S | 18 | 5 | 0 | . | 0 | 2
COCC1CC(c2ccccc2)OC(c2ccc(NC(=O)CCCCCCC(=O)O)cc2)O1 (stereo not drawn) | . | . | -12 | 18 | . | .
Cc1[nH]c2ccc(-c3nnc(SCC(=O)c4ccc(F)cc4)o3)cc2c1C | 13 | 8 | 3 | -9 | 12* | -7
Cc1cc(C)c(C)c(C(=O)CSc2nnc(-c3ccc4[nH]c(C)c(C)c4c3)o2)c1C | . | -2 | . | . | 0 | -8
Cc1ccc(S(=O)(=O)Nc2ccc3c(c2)C(=O)N([C@@H](C)CO)C[C@@H](C)[C@H](CN(C)C(=O)CCC(F)(F)F)OCCCC[C@H](C)O3)cc1 | -4 | . | 1 | -2 | . | .
N[C@@H](CS)C(=O)O | . | 0 | . | . | . | .
O=C(NC1CCCCC1)c1cccnc1Sc1ccccc1Cl | 20 | 8 | 5 | -19 | 0 | 10
O=C(NC1CCCCC1)c1cccnc1Sc1ccccc1 | 62* | 2 | 2 | . | 0 | -5
O=C1NC(=O)C2(CCCCC2C2CCCCC2)N1 (stereo not drawn) | 62* | -2 | 0 | -9 | -3 | -20
C=C[C@@]1(C)CC(=O)[C@]2(O)[C@@]3(C)[C@@H](O)CCC(C)(C)[C@@H]3[C@H](OC(C)=O)[C@H](O)[C@@]2(C)O1 | 85* | -4 | 6 | -6 | 6 | .
CC(=O)c1ccc(OCC(=O)N(C2CCCCC2)C2CCS(=O)(=O)C2)cc1 (stereo not drawn) | 54* | 0 | 0 | . | -1 | 4
Cc1ccc(S(=O)(=O)N[C@H]2CC[C@H](CCn3cc(C4CCCC4)nn3)O[C@H]2CO)cc1 | 2 | . | -1 | -3 | . | .
O=C(c1ccc(S(=O)(=O)Cc2cc(F)ccc2F)c([N+](=O)[O-])c1)N1CCCC1 | 76* | 2 | 2 | -21 | -1 | 8
C[C@@H]1CN([C@H](C)CO)C(=O)c2cc(NC(=O)Nc3ccc4c(c3)OCO4)ccc2O[C@@H](C)CCCCO[C@H]1CN(C)C(=O)c1ccccc1 | -3 | . | -1 | -3 | . | .
CC(C)(C)OC(=O)N1CCCN(C(=O)c2ccc(Cl)cc2)CC1 | 192* | 0 | 8 | -7 | -1 | 0
Cc1cccc(-n2c(C)c(C)c3c(N)ncnc32)c1 | 49* | -4 | 0 | -21 | -2 | -3
C[C@@H]1CN([C@@H](C)CO)C(=O)c2cccc(NC(=O)c3ccncc3)c2O[C@@H]1CN(C)C(=O)Nc1ccc(C(F)(F)F)cc1 | -5 | . | 1 | 3 | . | .
CCOc1cc(/C=C2/NC(=S)NC2=O)ccc1OCc1ccc([N+](=O)[O-])cc1 | 58* | -20 | . | -9 | 0 | -8
CCOc1cc(C(c2c(C)[nH][nH]c2=O)c2c(C)[nH][nH]c2=O)ccc1OCc1ccc([N+](=O)[O-])cc1 | . | -3 | . | -5 | -2 | 1
CCCN1C(=O)C(O)(C/C(C)=N/O)c2ccccc21 (stereo not drawn) | 50* | 0 | . | -6 | -2 | -4
COc1ccc(C2C3CCCCC3(O)CCN2C(=O)c2cccs2)cc1 (stereo not drawn) | 48* | 10 | . | 1 | -1 | -4
O=C(c1cccs1)N1CCC2(O)CCCCC2C1c1ccc(F)cc1 (stereo not drawn) | 54* | 1 | . | . | -1 | 4
(cont.)
SMILES | INS-1E GSIS act | NR1D1 modulator | ERp5 inh | UUG fidelity | SMARCA2 activ | PDI turbidity
Oc1ccc(N2CCN(Cc3cc4c(cc3Br)OCCO4)CC2)cc1 | 18 | 0 | 0 | -3 | -1 | 76*
Cc1ccc(C(CC(=O)O)NC(=O)c2ccc(S(=O)(=O)N3CC(C)OC(C)C3)cc2)cc1 (stereo not drawn) | 58* | -7 | -1 | -2 | 1 | -2
Cc1c(NCc2nc3ccccc3[nH]2)c(=O)n(-c2ccccc2)n1C | 17 | 0 | -1 | -22 | 7.8* | 8
Cc1c(NCc2cc(Cl)cc(Cl)c2O)c(=O)n(-c2ccccc2)n1C | . | -4 | . | -19 | -3 | 3
COc1ccccc1S(=O)(=O)N[C@H]1CC[C@@H](CCNC(=O)C2CC2)O[C@@H]1CO | 5 | . | -5 | 0 | . | .
O=C(CN1CCN(c2nc(-c3ccccc3)cs2)CC1)NNC(=O)c1ccc(Br)cc1 | . | 3 | . | -6 | -1 | -6
O=C(NC(=S)N1CCN(c2nc(-c3ccccc3)cs2)CC1)c1cncc(Br)c1 | 4 | 2 | -2 | -29 | 9.8* | -1
CC(C)[C@@H]1CC[C@@H](C)C[C@H]1OC[B-](F)(F)F | 69* | 1 | 2 | . | 1 | .
CN1CCN(C(=S)c2ccc(-c3cccc([N+](=O)[O-])c3)o2)CC1 | . | 1 | 5 | . | 7.9* | -1
C[C@@H]1CN(C)C(=O)c2cc(N(C)C)ccc2O[C@@H]1CN(C)C(=O)OC(C)(C)C | 1 | . | . | . | . | .
N#Cc1c(-c2ccncc2)cc(-c2ccc(F)cc2)nc1N | 49* | 13 | -1 | -12 | 3 | 0
CN(c1ncnc(N)c1[N+](=O)[O-])C1CCCCC1 | 41* | -8 | 5 | -21 | -3 | -4
COC(=O)C1=C(C)N(Cc2ccco2)C(=O)/C1=C\c1ccc(N(C)C)cc1 | 57* | 9 | . | -18 | 1 | -5
Cc1cccnc1NS(=O)(=O)c1ccccc1 | -3 | 5 | -2 | -7 | 7.9* | 4
O=C(NC[C@H]1CC[C@@H]2[C@@H](CN2S(=O)(=O)c2ccccc2[N+](=O)[O-])O1)C1CCCC1 | . | . | 4 | . | . | .
COC(=O)N1CCCCC1c1cc(C(=O)NCc2ccc(Cl)c(Cl)c2)no1 (stereo not drawn) | 73* | 3 | 0 | -8 | -2 | 3
CS(=O)(=O)c1ncc(Cl)c(C(=O)Nc2ccc(OC(F)F)cc2)n1 | 59* | . | 4 | -8 | . | -4
CS(=O)(=O)c1ncc(Cl)c(C(=O)Nc2ccc(N3CCOCC3)cc2)n1 | . | . | . | . | . | 10
Cc1ccc(C(=O)Nc2ccc3c(c2)ncn3C)cc1 | . | 1 | . | -36 | 2 | 1
CCn1cnc2cc(NC(=O)c3ccc(C)cc3)ccc21 | -7 | -1 | 5 | -14 | 7.9* | 0
F[B-](F)(F)COc1ccccc1 | 88* | 2 | -2 | -5 | -3 | -5
Cc1ccc(S(=O)(=O)N(C)C)cc1NC(=O)COC(=O)C1CC1 | 8 | 0 | 5 | 15 | -2 | 5
Cc1ccc(S(=O)(=O)N(C)C)cc1NC(=O)COC(=O)C1(c2ccccc2)CC1 | -9 | 0 | 28* | 12 | -4 | -3

With a hit mark in SMARCA2 activ, of those listed so far:
SMILES | INS-1E GSIS act | NR1D1 modulator | ERp5 inh | UUG fidelity | SMARCA2 activ | PDI turbidity
Cc1[nH]c2ccc(-c3nnc(SCC(=O)c4ccc(F)cc4)o3)cc2c1C | 13 | 8 | 3 | -9 | 12* | -7
Cc1c(NCc2nc3ccccc3[nH]2)c(=O)n(-c2ccccc2)n1C | 17 | 0 | -1 | -22 | 7.8* | 8
O=C(NC(=S)N1CCN(c2nc(-c3ccccc3)cs2)CC1)c1cncc(Br)c1 | 4 | 2 | -2 | -29 | 9.8* | -1
CN1CCN(C(=S)c2ccc(-c3cccc([N+](=O)[O-])c3)o2)CC1 | . | 1 | 5 | . | 7.9* | -1
Cc1cccnc1NS(=O)(=O)c1ccccc1 | -3 | 5 | -2 | -7 | 7.9* | 4
CCn1cnc2cc(NC(=O)c3ccc(C)cc3)ccc21 | -7 | -1 | 5 | -14 | 7.9* | 0
